Columns and labels:
[1] = Extraction of butyric acid from CGM medium with TBP in oleyl alcohol (Example 1.3); conditions: 24 hours, 37° C.
[2] = test system: PVA-immobilized clostridium tyrobutyricum; test: Extractive fermentation-column reactor, 1 M TOPO or TBP in oleyl alcohol (Example 4C); format: cell-based; conditions: 1 M extractant in oleyl alcohol as organic phase; 37° C., 100 hours

CCCCOP(=O)(OCCCC)OCCCC
butyric acid distribution ratio ([1]; TBP 0.1 M in oleyl alcohol, butyric acid 1%, pH 4): 1.77
butyric acid distribution ratio ([1]; TBP 0.1 M in oleyl alcohol, butyric acid 1%, pH 5): 0.51
butyric acid distribution ratio ([1]; TBP 0.1 M in oleyl alcohol, butyric acid 1%, pH 6): 0.05
butyric acid distribution ratio ([1]; TBP 0.1 M in oleyl alcohol, butyric acid 2%, pH 4): 2.34
butyric acid distribution ratio ([1]; TBP 0.1 M in oleyl alcohol, butyric acid 2%, pH 5): 0.51
butyric acid distribution ratio ([1]; TBP 0.1 M in oleyl alcohol, butyric acid 2%, pH 6): 0.05
butyric acid distribution ratio ([1]; TBP 0.1 M in oleyl alcohol, butyric acid 3%, pH 4): 2.31
butyric acid distribution ratio ([1]; TBP 0.1 M in oleyl alcohol, butyric acid 3%, pH 5): 0.44
butyric acid distribution ratio ([1]; TBP 0.1 M in oleyl alcohol, butyric acid 3%, pH 6): 0.04
butyric acid distribution ratio ([1]; TBP 0.5 M in oleyl alcohol, butyric acid 1%, pH 4): 2.04
butyric acid distribution ratio ([1]; TBP 0.5 M in oleyl alcohol, butyric acid 1%, pH 5): 0.55
butyric acid distribution ratio ([1]; TBP 0.5 M in oleyl alcohol, butyric acid 1%, pH 6): 0.10
butyric acid distribution ratio ([1]; TBP 0.5 M in oleyl alcohol, butyric acid 2%, pH 4): 2.75
butyric acid distribution ratio ([1]; TBP 0.5 M in oleyl alcohol, butyric acid 2%, pH 5): 0.56
butyric acid distribution ratio ([1]; TBP 0.5 M in oleyl alcohol, butyric acid 2%, pH 6): 0.05
butyric acid distribution ratio ([1]; TBP 0.5 M in oleyl alcohol, butyric acid 3%, pH 4): 2.64
butyric acid distribution ratio ([1]; TBP 0.5 M in oleyl alcohol, butyric acid 3%, pH 5): 0.46
butyric acid distribution ratio ([1]; TBP 0.5 M in oleyl alcohol, butyric acid 3%, pH 6): 0.05
butyric acid distribution ratio ([1]; TBP 1 M in oleyl alcohol, butyric acid 1%, pH 4): 2.57
butyric acid distribution ratio ([1]; TBP 1 M in oleyl alcohol, butyric acid 1%, pH 5): 0.62
butyric acid distribution ratio ([1]; TBP 1 M in oleyl alcohol, butyric acid 1%, pH 6): 0.08
butyric acid distribution ratio ([1]; TBP 1 M in oleyl alcohol, butyric acid 2%, pH 4): 3.47
butyric acid distribution ratio ([1]; TBP 1 M in oleyl alcohol, butyric acid 2%, pH 5): 0.61
butyric acid distribution ratio ([1]; TBP 1 M in oleyl alcohol, butyric acid 2%, pH 6): 0.07
butyric acid distribution ratio ([1]; TBP 1 M in oleyl alcohol, butyric acid 3%, pH 4): 3.20
butyric acid distribution ratio ([1]; TBP 1 M in oleyl alcohol, butyric acid 3%, pH 5): 0.50
butyric acid distribution ratio ([1]; TBP 1 M in oleyl alcohol, butyric acid 3%, pH 6): 0.05
Cells growth (Δ OD600) [2]: 0

Reference: patent publication US20140106421A1, “Methods Of Producing Carboxylic Acids And/Or Alcohols” (Industrial Technology Research Institute, priority 2012, published 2014)
